According to ChEMBL document CHEMBL4765388, “Fluoropyrimidin-2,4-dihydroxy-5-isopropylbenzamides as antitumor agents against CRC and NSCLC cancer cells” (Eur J Med Chem, 2020):

Experiments:
[1] = molecular target: T1, Heat shock protein HSP 90-alpha (Homo sapiens, UniProt P07900); test: Potency index, ratio of AUY-922 IC50 to test compound IC50 for inhibition of recombinant human full-length C-terminal Hsi-tagged HSP90alpha (1 to 732 residues) expressed in Escherichia coli
[2] = molecular target: T1, Heat shock protein HSP 90-alpha; test: Potency index, ratio of BIIB021 IC50 to test compound IC50 for inhibition of recombinant human full-length C-terminal Hsi-tagged HSP90alpha (1 to 732 residues) expressed in Escherichia coli

## CCN(C(=O)c1cc(C(C)C)c(O)cc1O)c1ccc(Cn2c(=O)c(F)cn(C3CCCO3)c2=O)cc1 (configuration not stated)
[1]
  Ratio IC50: 2
[2]
  Ratio IC50: 2
